This note sets out measurements from patent US20240219333A1, “IMPEDANCE-BASED INTESTINAL ORGANOID EVALUATION SYSTEM” (KOREA RESEARCH INSTITUTE OF CHEMICAL TECHNOLOGY, priority 2020, published 2024).

Assay type in all cases: cell-based
The subject of assay [1] is human intestinal organoid. The assay is described as follows: Immunostaining analysis of conjugated protein (ZO-1) in intestinal organoid. Conditions: mature HIO (IL-2) vs control HIO, FIG. 4d. As to the method: (§1) The formed human intestinal organoid (immature control, control HIO) was maintained by subculture once every 14 days with exchanging the medium once every 2 days. Additionally, the mature intestinal organoid (mature HIO) was cultured by subculture at least twice with treating with 1 ng/ml of IL-2.
(§2) For qRT-PCR analysis, human pluripotent stem cells, definitive endoderm cells, hindgut cells, control intestinal organoids, and mature intestinal organoids were collected, total RNA was extracted using a RNeasy kit, and cDNA was synthesized using Superscript IV First-Strand Synthesis System. Then, the analysis was performed using the primers targeting intestinal cell-specific marker genes and 7500 Fast Real-Time PCR System. Human small intestine total RNA (HSI) was purchased and used as a positive control. Morphological changes according to intestinal organoid maturation (FIG. 4b, upper panel) were investigated. As a result, it was confirmed that the size of the intestinal organoid (FIG. 4b, lower left panel) and the number of budding structures of the intestinal organoid (FIG. 4b, lower right panel) were increased in the mature intestinal organoid (Mature HIO) treated with IL-2 compared to the control intestinal organoid (Control HIO). […] Gene expression of conjugated proteins (ZO-1, OCLN, CLDN1, CLDN3, and CLDN5) involved in membrane function was analyzed. […]

In assay [2] the test system is human intestinal organoid. Put plainly: qRT-PCR of mature intestinal marker and conjugated protein genes in intestinal organoid. Conditions: mature HIO (IL-2) vs control HIO. As to the method: as §1, §2
Background: In qPCR the cycle at which signal appears reflects the starting amount.

For assay [3], the system named is human intestinal organoid. Put plainly: Morphological changes according to intestinal organoid maturation. The following applies: mature HIO treated with 1 ng/ml IL-2 vs control HIO. The protocol: as §1, §2

For IL-2, the “conjugated protein (ZO-1) expression” value in assay [1] is recorded as “highly expressed”. Besides, in assay [2] (human small intestine (HSI) RNA as positive control, FIG. 4c), the “expression level of the mature intestinal marker gene” value is reported as “increased similarly to that of the human small intestine”. Moreover, the “gene expression of conjugated proteins (ZO-1, OCLN, CLDN1, CLDN3, and CLDN5)” value in assay [2] (level corresponding to HSI, FIG. 4e) is listed as “highly expressed”. Besides, the “size of the intestinal organoid” value in assay [3] (FIG. 4b lower left) is given as “increased”. For the same substance, in assay [3] (FIG. 4b lower right), the “number of budding structures of the intestinal organoid” value is listed as “increased”.
